Laboratory results: US12685742B2, “Application of stachyose in preparation of drug for treating castration-resistant prostate cancer” (priority 2021, dated 2026)

System: AR
Experiment: AR immunohistochemistry of prostate tissue slices, C-MYC-over-expressed prostate cancer mouse model
Format: in vivo, mice
Details: 30 d after drug tolerance relapse, immunohistochemical positive cells
Description: Then, the necks of some mice were severed, and the prostate cancers of the mice were taken, photographed and weighed. […] Then, the necks of the mice were severed, and the prostate cancers of the mice were taken, photographed, weighed and subjected to experiments including immunohistochemistry.

`CNC(=O)c1ccc(N2C(=S)N(c3ccc(C#N)c(C(F)(F)F)c3)C(=O)C2(C)C)cc1F` [Enza, Enzalutamide] showed an AR expression/% (Enza 10 mg/Kg) of 89.4% and an AR expression/% (Enza 90 mg/Kg) of 82.6%.
